Experimental data as given in ChEMBL document CHEMBL5257147 (ACS Med Chem Lett, 2023).

Test system: Epidermal growth factor receptor (Homo sapiens), P00533 [C797S,L858R]
Assay: Potency index, ratio of osimertinib IC50 to test compound IC50 for inhibition of EGFR L858R/C797S mutant (unknown origin) using TK-substrate preincubated with enzyme for 30 mins followed by substrate and ATP addition for 20 mins by HTRF assay
Settings: time 50.0 min

For `C=CC(=O)Nc1cc(Nc2ncc(C(=O)OC(C)C)c(-c3cn(C)c4ccccc34)n2)c(OC)cc1N(C)CCN(C)C` [MOBOCERTINIB], the Ratio IC50 was > 10.
